## Yeast mating assay B: variants of the scFv Ab-14

Target: peptide PDVDLGDISGINAS, taken from heptad repeat 2 (HR2) of SARS-CoV-2 spike.

Ab-14 is the parent antibody, in scFv form: VH, then a (GGGGS)3 linker, then VL. The light chain is unchanged in all variants.
VH: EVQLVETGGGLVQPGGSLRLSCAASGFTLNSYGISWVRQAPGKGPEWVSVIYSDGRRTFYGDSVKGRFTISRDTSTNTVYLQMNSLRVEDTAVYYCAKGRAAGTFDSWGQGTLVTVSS
VL: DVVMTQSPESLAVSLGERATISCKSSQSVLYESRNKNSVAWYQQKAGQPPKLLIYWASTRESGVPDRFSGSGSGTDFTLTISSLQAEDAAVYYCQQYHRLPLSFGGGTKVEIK

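The parent was found by panning a naive human phage display library on the peptide. These sequences belong to a second round, designed from the earlier measurements on random variants of the parent. Several design methods are mixed in this list. The assay is AlphaSeq: two haploid yeast populations carry antibody and antigen on their surface. Pairs that bind mate more often; barcode pairs of the diploids are counted by sequencing. The ratio of observed to expected reads was calibrated, replicate by replicate, on BCL2-family standards whose Kd was known from biolayer interferometry. Mating was done six times.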

Each variant is given by its three heavy chain CDRs, as the data file delimits them; those of the parent are GFTLNSYGIS, VIYSDGRRTFYGDSVK, GRAAGTFDS.
Variants here have at most six changes.
The Kd shown is the geometric mean over detected replicates; a lower Kd is a better binder.
Where no diploid with the target was found in any replicate, the entry reads "nd": below detection, most likely a poor binder, though not proof of it.
Some sequences occur more than once in the pool; their replicates are pooled.
Background: pairings of all heavy chain designs with three empty control strains gave a value in 1% of cases (median 120 nM, 5th percentile 7.0 nM). Values in that range, when seen in few replicates, are hard to tell from nonspecific mating. The control count says in how many pairings with the empty strains this scFv gave a signal.
A sequence measured in both rounds can read differently, since the two assays cover different ranges.
The authors' rule: three or more of the six replicates give a measured affinity, fewer mean a poor binder.
The parent sequence was in this pool as ten entries: three were never detected, three once, and four in most replicates, with averages from 2.2 nM to 240 nM.

Variant GFNLNSYGIS / VIYSDGRRTFYIDSVK / GEAAGTFDS showed 5.5 nM (6 of 6 replicates; controls 0 of 18). With KFTLNEYGIS / VIYSDGRRTFYGDSVK / GRCAGTFDS the result was nd (0 of 6 replicates; controls 0 of 18). Variant GFTLNSYGIS / VIYSDGRRTFYVDSVK / GKAAGTFDS gave 270 nM (2 of 6 replicates; controls 0 of 18). Variant GFELNEYGIS / VIYSDGRRTFYGDSVK / GRYAGTFDS showed 3.2 nM (6 of 6 replicates; controls 0 of 18). With PFTLNSYGIS / VIYADGRRTFYGDSVK / GRAAGTFDS the result was 11 nM (6 of 6 replicates; controls 0 of 18). Variant GFTLDSYGIS / VIYSDGRRTFYGDSVK / GHVAGTFDS showed 8.1 nM (6 of 12 replicates; controls 2 of 36). Variant GFTPNSYGIS / VIYSDGRRTAYSDSVK / NRNAGTFDS showed nd (0 of 6 replicates; controls 0 of 18). Variant GFSLKSYGIS / VIYADGRRTFYGDSVK / GQAAGTFDS gave 5.9 nM (6 of 6 replicates; controls 1 of 18). Variant GATLRSYSIS / VIYSDGRRTFYGDSVK / GRAAGTIDS gave nd (0 of 6 replicates; controls 0 of 18).

Variant GFPLNSYGIS / VIYSDGRRTFYIDSVK / GQLAGTFDS gave 1.2 nM (6 of 6 replicates; controls 1 of 18). Variant GFTLNSYGIS / VIYSDGKRTFYGDSVK / GLVAGTFDT gave 4.6 nM (5 of 6 replicates; controls 0 of 18). Variant GFPLNSYGIS / VIYADGRRTFYGDSVK / GAAKGTNDS showed 7.4 nM (6 of 6 replicates; controls 0 of 18). For GFTLNSYGIS / VIYSDGRRTFYGDSVK / GRNAGTFDT, the assay gave 1.3 µM (4 of 6 replicates; controls 0 of 18). With GFTLESYGIS / VIYSDGRRTFYADSVK / GNAAGTFDS the result was 2.9 nM (6 of 6 replicates; controls 0 of 18). Variant GFDLNSYGIS / VIYSDGRRTFYGDSVK / GRAAGWCNK gave nd (0 of 6 replicates; controls 0 of 18). Variant GFSLNSYGIS / VIYADGRRTWYGDSVK / GRAAGTFDS showed 1.2 nM (6 of 6 replicates; controls 0 of 18). Variant GFTLNSYGIS / VIYADGRRTFYGDSVK / GRAAGTNDS gave nd (0 of 6 replicates; controls 0 of 18). For GFTLNSYGIS / VIYSDGRRTMYGDSVK / GREAGTFDS, the assay gave 4.2 nM (5 of 6 replicates; controls 0 of 18).

With GFDLNSYGIS / VIYSDGRRTFYGDSVK / GSTAGTFDF the result was 700 pM (6 of 6 replicates; controls 0 of 18). Variant GFSLNDYGIS / VIYSDGRRTFYGWSVK / GRTAGTFDS gave 1.0 nM (1 of 6 replicates; controls 0 of 18). Variant GFTLDSYGIS / VIYSDGQRTFYGDSVK / GRAAGTFDR gave 80 nM (6 of 6 replicates; controls 0 of 18). For GFTLNSYGIS / VIYSDGLRTFYGDSVK / GRAAFTFDS, the assay gave 37 nM (1 of 6 replicates; controls 0 of 18). Variant GFSLNSYGIS / VIYSDGRRTFYTDSVK / GQAAGTFDL gave 1.3 nM (6 of 6 replicates; controls 0 of 18). Variant GFELNEYGIS / VIYSDGRRTFYGDSVK / GQAAGTFDE gave 11 nM (6 of 6 replicates; controls 0 of 18). With GFTLDSYGTS / VIYSDGRRTFYGDSVK / GRAAGTALS the result was 400 nM (1 of 6 replicates; controls 0 of 18). For GFTLTSYGIS / VIYSDGRRTSYGDSVK / GRADGTFDS, the assay gave nd (0 of 6 replicates; controls 0 of 18). With KFDLNSYGIH / VIYSDGRRTFYGDSVK / GSAAGTFDS the result was 170 nM (2 of 6 replicates; controls 1 of 18).

For WFNLNSYGIS / VIYSDGRRTFYADSVK / GNVAGTFDS, the assay gave nd (0 of 6 replicates; controls 0 of 18). Variant GFDLNSYGIS / VIYSDGRRTFYGDRVK / GQIAGTFDS showed 29 nM (1 of 6 replicates; controls 0 of 18). Variant GFTLNSYGIS / VIYSDGERTHYGDSVV / GRAAGTFDS gave 87 nM (1 of 6 replicates; controls 0 of 18). For GFTLNDYGIS / VIYSDGRRTFYGDSVK / GRVAGTFWS, the assay gave nd (0 of 6 replicates; controls 0 of 18). With GFELNEYGIS / VIYSDGRRTFYGDSVK / GKAAGTFDV the result was 2.2 nM (6 of 6 replicates; controls 0 of 18). Variant GFTLNEYGIS / VIYSDGRRTFYTDSVK / GRFAGTFDW gave 2.6 nM (2 of 6 replicates; controls 0 of 18). Variant GFWLNEYGIS / VIYSDGRRTFYGDSVK / GQAAGTFDS gave 72 nM (2 of 6 replicates; controls 0 of 18). For KFSLNSYGIS / VIYSDGRRTAYGDSVK / GRAAGTFDS, the assay gave 27 nM (6 of 6 replicates; controls 1 of 18). For GFTLRDYGIS / VIYSDGRRTFYGDSVK / GRAAGTFDS, the assay gave 7.7 nM (4 of 6 replicates; controls 0 of 18).

Variant GFTLNSYGIS / VIYSDGRRTMYGDSVK / GRAAGTGDH showed nd (0 of 6 replicates; controls 0 of 18). Variant GFGLNSYGIS / VIYSDGRRTFYGDSVK / GEAAGTFDS gave 9.8 nM (6 of 6 replicates; controls 0 of 18). Variant GFTLDSYGIS / VIYSDGRRTFYSDSVK / GRLAGTFDS showed 1.7 nM (12 of 12 replicates; controls 3 of 36). For GFDLNSYGIS / VIYSDGRRTFYGDSVK / GRFAGTFDS, the assay gave 3.3 nM (6 of 6 replicates; controls 1 of 18). With GFTLESYGIS / VIYADGRRTFYGDDVK / GRAAGTFDS the result was 1.7 nM (6 of 6 replicates; controls 0 of 18). With GFSLNEYGIS / VIYSDGRRTFYIDSVK / GRHAGTFDS the result was 2.6 nM (6 of 6 replicates; controls 0 of 18). Variant GFTLNSYGIS / VIYSDGRRTFYGDSVR / GRIAGTFDS gave 39 nM (5 of 6 replicates; controls 0 of 18). Variant GFTLNSYGIS / VIYSDGKRTFYGDSVK / GQAAGTFDV gave nd (0 of 6 replicates; controls 0 of 18). Variant GFELNSYGIS / VIYSDGRRTFYTDSVK / GHAAGTFDS gave 19 nM (4 of 6 replicates; controls 0 of 18).

For GFHLNSYGIS / VIYSDERRTFYGDSVK / GRAAGTFDS, the assay gave nd (0 of 6 replicates; controls 0 of 18). Variant GFNLNSYGIS / VIYSDGRRTFYGDQVK / GKIAGTFDS gave 6.0 nM (1 of 6 replicates; controls 0 of 18). For MFSLNSYGIS / VIYADGRRTFYGDSVK / GNAAGTFDS, the assay gave 7.1 nM (6 of 6 replicates; controls 0 of 18). For GFKLNSYGIS / VIYSDGRRTFYADSVK / GRNAGTFDS, the assay gave 69 nM (5 of 6 replicates; controls 0 of 18). For GFTLNSYGIS / VIYSDGFRTFYGDSVK / GRAAFTFDS, the assay gave nd (0 of 6 replicates; controls 0 of 18). Variant GFSLNSYGIS / VIYADGRRTFYGDSVK / GKAAGTFDG gave 110 pM (5 of 6 replicates; controls 0 of 18). With GFELNSYGIS / VIYSDGRRTFYGDSVK / GRIAGTFDL the result was 22 nM (5 of 6 replicates; controls 0 of 18).

The closing 4 entries, repeated:

| CDR-H1 | CDR-H2 | CDR-H3 | Kd (apparent) | replicates with signal | signal with controls |
|---|---|---|---|---|---|
| GFKLNSYGIS | VIYSDGRRTFYADSVK | GRNAGTFDS | 69 nM | 5/6 | 0/18 |
| GFTLNSYGIS | VIYSDGFRTFYGDSVK | GRAAFTFDS | nd | 0/6 | 0/18 |
| GFSLNSYGIS | VIYADGRRTFYGDSVK | GKAAGTFDG | 110 pM | 5/6 | 0/18 |
| GFELNSYGIS | VIYSDGRRTFYGDSVK | GRIAGTFDL | 22 nM | 5/6 | 0/18 |

Values reported by Li et al. 2023, doi:10.1038/s41467-023-39022-2 (FLAb copy).